Measured values published in US6936585B2, “Corticotropin releasing factor 2 receptor agonists” (priority 2002, dated 2005).

Columns and labels:
CRF2R = target: T1, CRF2R (Homo sapiens, UniProt Q13324); experiment: CRF2R agonist activation (EC50 / Emax), called comparative CRF binding; assay type: cell-based; conditions: for Emax: read-out: CRF2R Emax
T1 sequence (Q13324 1-411): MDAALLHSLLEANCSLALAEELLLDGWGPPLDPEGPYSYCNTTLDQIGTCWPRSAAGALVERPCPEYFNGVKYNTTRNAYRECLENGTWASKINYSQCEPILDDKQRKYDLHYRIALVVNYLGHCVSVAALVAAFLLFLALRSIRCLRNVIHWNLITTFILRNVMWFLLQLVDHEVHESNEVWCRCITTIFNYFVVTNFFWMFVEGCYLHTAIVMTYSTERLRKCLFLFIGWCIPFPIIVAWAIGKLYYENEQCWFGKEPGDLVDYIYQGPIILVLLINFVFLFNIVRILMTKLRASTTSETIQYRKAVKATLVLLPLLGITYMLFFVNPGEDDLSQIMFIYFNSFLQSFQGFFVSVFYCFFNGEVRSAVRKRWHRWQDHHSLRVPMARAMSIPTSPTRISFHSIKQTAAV
How it was run: (§1)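 Cells expressing full-length human CRF1R or CRF2R were exposed to peptide or vehicle control, and receptor activation was gauged as cAMP induction. cAMP was measured in cell lysates or via a cAMP-responsive element driving a reporter gene such as luciferase, CAT, GFP or alkaline phosphatase.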

CRF1R = target: T2, CRF1R (Homo sapiens, UniProt P34998); experiment: CRF1R agonist activation (EC50 / Emax), called comparative CRF binding; assay type: cell-based; conditions: for Emax: read-out: CRF1R Emax
T2 sequence (P34998 24-415): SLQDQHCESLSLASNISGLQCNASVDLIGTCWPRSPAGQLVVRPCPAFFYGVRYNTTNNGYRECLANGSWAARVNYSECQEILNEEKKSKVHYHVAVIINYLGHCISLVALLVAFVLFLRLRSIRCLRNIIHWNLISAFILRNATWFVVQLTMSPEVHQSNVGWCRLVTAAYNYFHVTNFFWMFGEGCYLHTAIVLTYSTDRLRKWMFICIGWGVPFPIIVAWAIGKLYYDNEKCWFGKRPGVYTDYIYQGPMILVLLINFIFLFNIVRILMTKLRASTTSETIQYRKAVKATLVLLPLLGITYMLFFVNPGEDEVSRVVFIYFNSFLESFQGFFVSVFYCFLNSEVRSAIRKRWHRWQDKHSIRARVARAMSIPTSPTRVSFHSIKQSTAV
How it was run: as §1

| SMILES | Emax (CRF2R) [%] | Emax (CRF1R) [%] | EC50 (CRF2R) [nM] | EC50 (CRF1R; CRF1R EC50) [nM] |
| --- | --- | --- | --- | --- |
| CC[C@H](C)[C@H](NC(=O)[C@@H](NC(=O)[C@H](CC(=O)O)NC(=O)[C@H](CC(C)C)NC(=O)[C@H](CC(C)C)NC(=O)[C@H](CC(C)C)NC(=O)[C@H](C)NC(=O)[C@H](CC(N)=O)NC(=O)[C@H](CC(N)=O)NC(=O)[C@H](C)NC(=O)[C@H](C)NC(=O)[C@H](CCC(N)=O)NC(=O)[C@H](CCC(N)=O)NC(=O)[C@H](CCCCN)NC(=O)[C@H](CCC(=O)O)NC(=O)[C@H](CCCCN)NC(=O)[C@H](CCC(=O)O)NC(=O)[C@H](CCC(N)=O)NC(=O)[C@H](CCCCN)NC(=O)[C@H](CCC(=O)O)NC(=O)[C@@H](NC(=O)[C@H](CCC(=O)O)NC(=O)[C@@H](NC(=O)[C@H](CCSC)NC(=O)[C@H](CCCCN)NC(=O)[C@H](CCCNC(=N)N)NC(=O)[C@H](CC(C)C)NC(=O)[C@H](CC(C)C)NC(=O)[C@H](Cc1c[nH]c2ccccc12)NC(=O)[C@H](Cc1ccc(O)cc1)NC(=O)[C@@H]1CCCN1C(=O)[C@H](CC(C)C)NC(=O)[C@H](CC(=O)O)NC(=O)[C@@H](NC(=O)[C@H](CO)NC(=O)[C@@H](NC(=O)[C@@H]1CCCN1C(=O)[C@@H]1CCCN1C(=O)CNC(=O)[C@@H]1CCC(=O)N1)[C@@H](C)CC)[C@@H](C)CC)[C@@H](C)CC)[C@@H](C)CC)[C@@H](C)O)C(N)=O [compound 310] | 87.5 | 45.3 | – | – |
| CC[C@H](C)[C@H](NC(=O)[C@@H](NC(=O)[C@H](CC(=O)O)NC(=O)[C@H](CC(C)C)NC(=O)[C@H](CC(C)C)NC(=O)[C@H](CC(C)C)NC(=O)[C@H](C)NC(=O)[C@H](CC(N)=O)NC(=O)[C@H](CC(N)=O)NC(=O)[C@H](C)NC(=O)[C@H](C)NC(=O)[C@H](CCC(N)=O)NC(=O)[C@H](CCC(N)=O)NC(=O)[C@H](CCCCN)NC(=O)[C@H](CCC(=O)O)NC(=O)[C@H](CCCCN)NC(=O)[C@H](CCC(=O)O)NC(=O)[C@H](CCC(N)=O)NC(=O)[C@H](CCCCN)NC(=O)[C@H](CCC(=O)O)NC(=O)[C@@H](NC(=O)[C@H](CCC(=O)O)NC(=O)[C@@H](NC(=O)[C@H](CCSC)NC(=O)[C@H](CCCCN)NC(=O)[C@H](CCCNC(=N)N)NC(=O)[C@H](CC(C)C)NC(=O)[C@H](CC(C)C)NC(=O)[C@H](Cc1ccc(O)cc1)NC(=O)[C@H](CCC(N)=O)NC(=O)[C@@H]1CCCN1C(=O)[C@H](CC(C)C)NC(=O)[C@H](CC(=O)O)NC(=O)[C@@H](NC(=O)[C@H](CO)NC(=O)[C@@H](NC(=O)[C@@H]1CCCN1C(=O)[C@@H]1CCCN1C(=O)CNC(=O)[C@@H]1CCC(=O)N1)[C@@H](C)CC)[C@@H](C)CC)[C@@H](C)CC)[C@@H](C)CC)[C@@H](C)O)C(N)=O [compound 224] | 100 | 27 | – | – |
| CC[C@H](C)[C@H](NC(=O)[C@@H](NC(=O)[C@H](CC(=O)O)NC(=O)[C@H](CC(C)C)NC(=O)[C@H](CC(C)C)NC(=O)[C@H](CC(C)C)NC(=O)[C@H](CCCNC(=N)N)NC(=O)[C@H](CC(N)=O)NC(=O)[C@H](CC(N)=O)NC(=O)[C@H](C)NC(=O)[C@H](C)NC(=O)[C@H](CCC(N)=O)NC(=O)[C@H](CCC(N)=O)NC(=O)[C@H](CCCCN)NC(=O)[C@H](CCC(=O)O)NC(=O)[C@H](CCCCN)NC(=O)[C@H](CCC(=O)O)NC(=O)[C@H](CCC(N)=O)NC(=O)[C@H](CCCCN)NC(=O)[C@H](CCC(=O)O)NC(=O)[C@@H](NC(=O)[C@H](CCC(=O)O)NC(=O)[C@@H](NC(=O)[C@H](CCSC)NC(=O)[C@H](CCCCN)NC(=O)[C@H](CCCNC(=N)N)NC(=O)[C@H](CC(C)C)NC(=O)[C@H](CC(C)C)NC(=O)[C@@H](NC(=O)[C@H](CC(C)C)NC(=O)[C@@H]1CCCN1C(=O)[C@H](CC(C)C)NC(=O)[C@H](CC(=O)O)NC(=O)[C@@H](NC(=O)[C@H](CO)NC(=O)[C@@H](NC(=O)[C@@H]1CCCN1C(=O)[C@@H]1CCCN1C(=O)CNC(=O)[C@@H]1CCC(=O)N1)[C@@H](C)CC)[C@@H](C)CC)C(C)C)[C@@H](C)CC)[C@@H](C)CC)[C@@H](C)O)C(N)=O [compound 193] | 97 | 95 | – | – |
| CC[C@H](C)[C@H](NC(=O)[C@H](CCC(=O)O)NC(=O)[C@@H](NC(=O)[C@H](CCSC)NC(=O)[C@H](CCCCN)NC(=O)[C@H](CCCNC(=N)N)NC(=O)[C@H](CC(C)C)NC(=O)[C@H](CC(C)C)NC(=O)[C@H](Cc1ccc(O)cc1)NC(=O)[C@H](CC(C)C)NC(=O)[C@@H]1CCCN1C(=O)[C@H](CC(C)C)NC(=O)[C@H](CC(=O)O)NC(=O)[C@@H](NC(=O)[C@H](CO)NC(=O)[C@@H](NC(=O)[C@@H]1CCCN1C(=O)[C@@H]1CCCN1C(=O)CNC(=O)[C@@H]1CCC(=O)N1)[C@@H](C)CC)[C@@H](C)CC)[C@@H](C)CC)C(=O)N[C@@H](CCC(=O)O)C(=O)N[C@@H](CCCCN)C(=O)N[C@@H](CCC(N)=O)C(=O)N[C@@H](CCC(=O)O)C(=O)N[C@@H](CCCCN)C(=O)N[C@@H](CCC(=O)O)C(=O)N[C@@H](CCCCN)C(=O)N[C@@H](CCC(N)=O)C(=O)N[C@@H](CCC(N)=O)C(=O)N[C@@H](C)C(=O)N[C@H](C(=O)N[C@H](C(=O)N[C@@H](CC(N)=O)C(=O)N[C@@H](C)C(=O)N[C@@H](CCCNC(=N)N)C(=O)N[C@@H](CC(C)C)C(=O)N[C@@H](CC(C)C)C(=O)N[C@@H](CC(=O)O)C(=O)N[C@H](C(=O)N[C@H](C(N)=O)C(C)C)[C@@H](C)O)[C@@H](C)O)[C@@H](C)O [compound 242] | 94 | 99 | – | – |
| CC[C@H](C)[C@H](NC(=O)[C@@H](NC(=O)[C@H](CC(=O)O)NC(=O)[C@H](CC(C)C)NC(=O)[C@H](CC(C)C)NC(=O)[C@H](CC(C)C)NC(=O)[C@H](CCCNC(=N)N)NC(=O)[C@H](CC(N)=O)NC(=O)[C@H](CC(N)=O)NC(=O)[C@H](C)NC(=O)[C@H](C)NC(=O)[C@H](CCC(N)=O)NC(=O)[C@H](CCC(N)=O)NC(=O)[C@H](CCCCN)NC(=O)[C@H](CCC(=O)O)NC(=O)[C@H](CCCCN)NC(=O)[C@H](CCC(=O)O)NC(=O)[C@H](CCC(N)=O)NC(=O)[C@H](CCCCN)NC(=O)[C@H](CCC(=O)O)NC(=O)[C@@H](NC(=O)[C@H](CCC(=O)O)NC(=O)[C@@H](NC(=O)[C@H](CCSC)NC(=O)[C@H](CCCCN)NC(=O)[C@H](CCCNC(=N)N)NC(=O)[C@H](CC(C)C)NC(=O)[C@H](CC(C)C)NC(=O)CNC(=O)[C@@H](NC(=O)[C@H](CO)NC(=O)[C@H](CC(C)C)NC(=O)[C@H](CC(=O)O)NC(=O)[C@@H](NC(=O)[C@H](CO)NC(=O)[C@@H](NC(=O)[C@@H]1CCCN1C(=O)[C@@H]1CCCN1C(=O)CNC(=O)[C@@H]1CCC(=O)N1)[C@@H](C)CC)[C@@H](C)CC)[C@@H](C)CC)[C@@H](C)CC)[C@@H](C)CC)[C@@H](C)O)C(N)=O [compound 25] | 81.9 | 92.3 | – | – |
| CC[C@H](C)[C@H](NC(=O)[C@@H](NC(=O)[C@H](CC(=O)O)NC(=O)[C@H](CC(C)C)NC(=O)[C@H](CC(C)C)NC(=O)[C@H](CC(C)C)NC(=O)[C@H](C)NC(=O)[C@H](CC(N)=O)NC(=O)[C@H](CC(N)=O)NC(=O)[C@H](C)NC(=O)[C@H](C)NC(=O)[C@H](CCC(N)=O)NC(=O)[C@H](CCC(N)=O)NC(=O)[C@H](CCCCN)NC(=O)[C@H](CCC(=O)O)NC(=O)[C@H](CCCCN)NC(=O)[C@H](CCC(=O)O)NC(=O)[C@H](CCC(N)=O)NC(=O)[C@H](CCCCN)NC(=O)[C@H](CCC(=O)O)NC(=O)[C@@H](NC(=O)[C@H](CCC(=O)O)NC(=O)[C@@H](NC(=O)[C@H](C)NC(=O)[C@H](CCCCN)NC(=O)[C@H](CCCNC(=N)N)NC(=O)[C@H](CC(C)C)NC(=O)[C@H](CC(C)C)NC(=O)[C@H](CCC(N)=O)NC(=O)[C@H](Cc1ccccc1)NC(=O)[C@@H]1CCCN1C(=O)[C@H](CC(C)C)NC(=O)[C@H](CC(=O)O)NC(=O)[C@@H](NC(=O)[C@H](CO)NC(=O)[C@@H](NC(=O)[C@@H]1CCCN1C(=O)[C@@H]1CCCN1C(=O)CNC(=O)[C@@H]1CCC(=O)N1)[C@@H](C)CC)[C@@H](C)CC)[C@@H](C)CC)[C@@H](C)CC)[C@@H](C)O)C(N)=O [compound 365] | 94 | 21 | – | – |
| CC[C@H](C)[C@H](NC(=O)[C@@H](NC(=O)[C@H](CC(=O)O)NC(=O)[C@H](CC(C)C)NC(=O)[C@H](CC(C)C)NC(=O)[C@H](CC(C)C)NC(=O)[C@H](CCCNC(=N)N)NC(=O)[C@H](CC(N)=O)NC(=O)[C@H](CC(N)=O)NC(=O)[C@H](C)NC(=O)[C@H](C)NC(=O)[C@H](CCC(N)=O)NC(=O)[C@H](CCC(N)=O)NC(=O)[C@H](CCCCN)NC(=O)[C@H](CCC(=O)O)NC(=O)[C@H](CCCCN)NC(=O)[C@H](CCC(=O)O)NC(=O)[C@H](CCC(N)=O)NC(=O)[C@H](CCCCN)NC(=O)[C@H](CCC(=O)O)NC(=O)[C@@H](NC(=O)[C@H](CCC(=O)O)NC(=O)[C@@H](NC(=O)[C@H](CCSC)NC(=O)[C@H](CCCCN)NC(=O)[C@H](CCCNC(=N)N)NC(=O)[C@H](CC(C)C)NC(=O)[C@H](CC(C)C)NC(=O)[C@H](C)NC(=O)[C@H](Cc1ccccc1)NC(=O)[C@@H]1CCCN1C(=O)[C@H](CC(C)C)NC(=O)[C@H](CC(=O)O)NC(=O)[C@@H](NC(=O)[C@H](CO)NC(=O)[C@@H](NC(=O)[C@@H]1CCCN1C(=O)[C@@H]1CCCN1C(=O)CNC(=O)[C@@H]1CCC(=O)N1)[C@@H](C)CC)[C@@H](C)CC)[C@@H](C)CC)[C@@H](C)CC)[C@@H](C)O)C(N)=O [compound 307] | 96.5 | 92.7 | 5.82 | 78.4 |
